This is one part of the list.

Chains of the proteins cited; added tags and fusions are not shown. Lines headed by an entry give the natural chain unless they say otherwise; changes in a name come on top.
UniProt Q9BVK6: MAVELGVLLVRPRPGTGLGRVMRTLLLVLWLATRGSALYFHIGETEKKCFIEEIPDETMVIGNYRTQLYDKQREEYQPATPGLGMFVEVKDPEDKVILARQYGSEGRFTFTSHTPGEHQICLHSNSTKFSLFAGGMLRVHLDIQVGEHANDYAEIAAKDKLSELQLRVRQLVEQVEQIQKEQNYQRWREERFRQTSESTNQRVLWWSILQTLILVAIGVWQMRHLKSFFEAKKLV

This experiment deals with TMED9 (UniProt Q9BVK6). Conditions: virion.

Consider TMED10, P49755, for which the cross-linked residues entry was “K140 - K160”.

The values are drawn from article PMC12214610.
